# Yeast mating assay 2: variants of the scFv Ab-95

Target peptide (SARS-CoV-2 spike, HR2 region): PDVDLGDISGINAS

Parent: Ab-95, a human scFv built as VH, a (GGGGS)3 linker, VL. Only the CDRs of the light chain vary.
VH: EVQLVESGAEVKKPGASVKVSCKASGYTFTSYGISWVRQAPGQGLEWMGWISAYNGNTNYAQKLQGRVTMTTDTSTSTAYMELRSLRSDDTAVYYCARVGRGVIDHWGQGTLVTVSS
VL: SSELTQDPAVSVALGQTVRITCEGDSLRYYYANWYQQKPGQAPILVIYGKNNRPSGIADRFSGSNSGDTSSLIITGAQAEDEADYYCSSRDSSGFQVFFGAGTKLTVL

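Phage display of a naive human antibody library on the peptide gave the parent. The library (AAYL52) carries one to three amino acid substitutions per variant, with no insertions or deletions. The assay is AlphaSeq: two haploid yeast populations carry antibody and antigen on their surface. Mating (16 h, 30 °C) was followed by selection of diploids and sequencing of their barcodes. A regression on co-assayed BCL2-family reference pairs converts the normalised counts of each replicate to an apparent Kd. Mating was done three times.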

The whole VL of each variant is written out. Kd is apparent (estimated from mating counts) and averaged on the log scale over replicates with a signal. Smaller is tighter. Where no diploid with the target was found in any replicate, the entry reads "no signal": below detection, most likely a poor binder, though not proof of it. In this assay the parent's reference entry averaged 200 nM; its copy inside this library read 180 nM. As a blank, each scFv also met three strains without target: over library AAYL52, 28% of these pairings were detected, typically at 8.2 µM and seldom below 800 nM.

| VL | apparent Kd | detected |
|---|---|---|
| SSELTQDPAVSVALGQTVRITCEGDSLRYLYANWYQQKPGQAPILVIYRKNNNPSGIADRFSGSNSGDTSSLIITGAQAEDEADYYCSSRDSSGFQVFFGAGTKLTVL | no signal | 0 of 3 |
| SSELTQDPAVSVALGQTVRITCEGDSCRYYDANWYQQKPGQAPILVIYGKNNRPSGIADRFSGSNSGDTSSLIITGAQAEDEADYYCSSRDISGFQVFFGAGTKLTVL | 380 nM | 3 of 3 |
| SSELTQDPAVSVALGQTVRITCEGDSLRYYYAKWYQQKPGQAPILVIYGMNNRPSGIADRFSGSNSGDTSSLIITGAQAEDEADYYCSSRDASGFQVFFGAGTKLTVL | 10 µM | 3 of 3 |
| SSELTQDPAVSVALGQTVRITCEGDSKRIYYANWYQQKPGQAPILVIYGKNNRPSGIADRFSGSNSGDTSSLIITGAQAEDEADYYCSSCDSSGFQVFFGAGTKLTVL | 18 µM | 1 of 3 |
| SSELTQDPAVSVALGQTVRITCELDSLRYYQANWYQQKPGQAPILVIYGKNNRPSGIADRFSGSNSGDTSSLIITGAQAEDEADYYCSSRDSSGFQPFFGAGTKLTVL | 1.9 µM | 3 of 3 |
| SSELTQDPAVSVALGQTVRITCEGDSLRGYNMNWYQQKPGQAPILVIYGKNNRPSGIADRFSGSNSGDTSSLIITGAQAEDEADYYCSSRDSSGFQVFFGAGTKLTVL | 2.4 nM | 3 of 3 |
| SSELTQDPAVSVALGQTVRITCEGDSLRYYRANWYQQKPGQAPILVIYGKNNRPSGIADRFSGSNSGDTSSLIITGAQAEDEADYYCDSRGSSGFQVFFGAGTKLTVL | 5.3 µM | 1 of 3 |
| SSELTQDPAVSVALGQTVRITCAGDSLRIYYANWYQQKPGQAPILVIYGKTNRPSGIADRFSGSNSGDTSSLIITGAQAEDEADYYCSSRDSSGFQVFFGAGTKLTVL | 9.1 µM | 1 of 3 |
| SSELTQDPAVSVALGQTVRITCEGDFLRYYYANWYQQKPGQAPILVIYGKNNRPSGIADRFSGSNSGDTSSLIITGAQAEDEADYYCSSRDSSGFVYFFGAGTKLTVL | 740 nM | 3 of 3 |
| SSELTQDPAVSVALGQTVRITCEGDSLRYYRANWYQQKPGQAPILVIYGKNNRPSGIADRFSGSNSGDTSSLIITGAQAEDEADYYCSHCDSSGFQVFFGAGTKLTVL | no signal | 0 of 3 |
| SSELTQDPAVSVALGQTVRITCEGDSLRYCYANWYQQKPGQAPILVIYGKNNPPSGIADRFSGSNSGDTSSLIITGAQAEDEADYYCSSRDSSGFQEFFGAGTKLTVL | 14 µM | 3 of 3 |
| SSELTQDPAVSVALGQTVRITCEGCSLRYYDANWYQQKPGQAPILVIYGKNNRPSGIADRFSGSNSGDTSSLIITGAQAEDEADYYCSSRDSSGFQHFFGAGTKLTVL | 44 nM | 3 of 3 |
| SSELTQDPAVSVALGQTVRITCEMDSNRYYYANWYQQKPGQAPILVIYGKNNRPSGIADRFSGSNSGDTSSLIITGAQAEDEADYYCSVRDSSGFQVFFGAGTKLTVL | 84 nM | 3 of 3 |
| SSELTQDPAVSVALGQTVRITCEGDSLRYYYANWYQQKPGQAPILVIYGKNNRDSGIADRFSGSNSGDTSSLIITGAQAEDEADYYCSSRDSRGFQVQFGAGTKLTVL | 57 µM | 1 of 3 |

The opening 2 entries, copied out:

VL,apparent Kd,detected
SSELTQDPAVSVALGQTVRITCEGDSLRYLYANWYQQKPGQAPILVIYRKNNNPSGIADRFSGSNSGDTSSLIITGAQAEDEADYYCSSRDSSGFQVFFGAGTKLTVL,no signal,0 of 3
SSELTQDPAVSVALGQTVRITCEGDSCRYYDANWYQQKPGQAPILVIYGKNNRPSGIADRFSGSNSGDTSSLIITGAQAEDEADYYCSSRDISGFQVFFGAGTKLTVL,380 nM,3 of 3

From the AlphaSeq antibody data of Engelhart et al. 2022 (doi:10.1038/s41597-022-01779-4), copy in the FLAb collection.